# The list is not random: actives were taken first. Their share in the collection is about 3.7%.
# ClpP mod: qHTS Assay for Activators of ClpP; Potency, µM (titrated, usually from 57.5 µM), for the others: at the top dose activity change, negative = active; purified B. subtilis ClpP, FRET peptide cleavage, 20 min; ATP-dependent Clp protease proteolytic subunit (Bacillus subtilis (strain 168)), P80244; hit rate 1.9% among 340,000; active = well fitted falling curve with a large enough effect; inconclusive = small, poorly fitted or top-dose-only effect; inactive = no such curve, though single readings can be large or run the other way; note: potency is the fitted concentration of half-maximal effect; the source files actives as falling curves though it sought activators and does not explain the sign; nearly all actives have a fitted effect of over 65% in size
#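 ClpP 10 microg/mL final, pH 8 Tris/KCl buffer with BSA, glycerol, Tween-20; compound pinned in; FRET-FV substrate; RT 20 min; Ex320/Em430; ΔFRET vs ADEP 5.8 microM, DMSO, no enzyme.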
# A549 tox: A549 cytotoxicity, counter-screen for Nrf2 inhibitors; hit rate 0.16% among 390,000; AID 504648; Potency, µM (series often up to 46 µM), for the others: top-dose activity change, negative = cytotoxicity, usual class: inhibitors; A549 ARE-Fluc cells, CellTiter-Fluor viability, 18-24 h; note: potency is the fitted concentration of half-maximal effect; % is set by controls: 0 for no effect and ±100 for the full control effect
#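 A549 ARE_Fluc cells in 5% FBS OPTI-MEM were exposed to compounds in concentration-response for 18-24 h at 37 deg C. Viability was read by CellTiter-Fluor fluorescence (Ex 405/Em 525) after 30 min, before the luciferase read.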
# Nrf2 block: Nrf2 pathway inhibition | A549 ARE-Fluc reporter, luciferase luminescence, 18-24 h | Potency, µM (top dose mostly 46 µM), for inactives: at the highest dose activity change, negative = inhibition, actives largely listed as inhibitors | hit rate 2.1% among 360,000; note: potency is the fitted concentration of half-maximal effect; % is set by controls: 0 for no effect and ±100 for the full control effect; nearly all actives have a fitted effect of over 60% in size
#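 In this cell-based qHTS, ARE-driven firefly luciferase in A549 cells reports Nrf2 activity; the luminescent signal after BugLite lysis is the measured value, with a prior CellTiter-Fluor read for cell health.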
# IL-2 act: activators of IL-2 | IL-2 activation reporter assay, cell-based qHTS; stimulated with anti-CD3/CD4/CD28 beads; in transgenic mouse T cells | activation, % (series mostly up to about 46 µM) | hit rate 0.065% among 360,000 | AID 652025; in the data active = activation above about 50%; inconclusive = mostly about 30% to 49%; note: 0% is about no effect
#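 Unstimulated transgenic mouse T cells; 60-min compound exposure; bead-based TCR/CD4/CD28 stimulation; 18 h culture, 37 degrees C; dual fluorescence (EGFP, DsRed) plate cytometry.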
# miR-21 reporter: raises the signal of a miR-21 reporter; HeLa miR-21 FLuc reporter, luciferase, 48 h; Potency, µM (highest dose often 38.3 µM), for inactives: at the highest dose reporter change, positive = more light; 340,000 tested, under 10 active; active = well fitted rising curve with a large enough effect; inconclusive = small, poorly fitted or top-dose-only effect; inactive = no such curve, though single readings can be large or run the other way;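 also: % of control where 0% means no effect; miR-21 action dims this reporter so a rising signal means less miR-21 action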
#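 HeLa miR-21-FLuc reporter line, endogenous miR-21; 2000 cells/well in DMEM/10% FBS; compound titration up to ~40uM final, 48 h, 37 degree Celsius; luciferase detection reagent, 15 min lysis, CCD luminescence.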
# Nrf2 ARE act: Nrf2 pathway activation; hit rate 0.31% among 410,000; AID 624171; Potency, µM (top dose mostly 46.1 µM), without a hit: at the top dose activation, hits mostly activators; AREc32 ARE-luciferase reporter (MCF7-derived line), luminescence, 24 h; note: potency is the fitted concentration of half-maximal effect; % of control where 0% means no effect; nearly all actives have a fitted effect of over 65% in size
#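 For detection, Steady-Glo was added and plates sat 30 min at RT; before that, AREc32_Fluc cells grown overnight in OPTI-MEM/5% FBS had been treated with 23 nL compound for 24 hr at 37 deg C.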
# An asterisk follows results filed as active; ? = inconclusive; · = not tested or not shown. Unless noted, calls come from the whole dose curve; as a rule, active = well fitted curve in the direction sought with a large enough effect; inconclusive = small, poorly fitted or top-dose-only effect, or another doubt; inactive = no such curve, though single readings can be large; an effect the other way counts as inactive or inconclusive.
(1) CCc1cccc(NC(=O)C(Cc2ccccc2)NS(=O)(=O)c2ccc3c(c2)oc(=O)n3C)c1 (stereo not drawn)
(2) Nc1nc(SCC(=O)O)c2[nH]cnc2n1
(3) Nc1nc(OCC2CCCCC2)c2[nH]cnc2n1
(4) CCCCn1c(N)c(N(CC)C(=O)c2cccc(S(=O)(=O)N3CCCc4ccccc43)c2)c(=O)[nH]c1=O
(5) CCCn1c(N)c(N(CCOC)C(=O)c2cc3c(s2)CCC(CC)C3)c(=O)[nH]c1=O (stereo not drawn)
(6) CCCn1c(N)c(N(CCOC)C(=O)c2cccc(S(=O)(=O)N3CCCc4ccccc43)c2)c(=O)[nH]c1=O
(7) COc1cc(C2CC(=O)Nc3c2c(=O)[nH]c2ncnn32)ccc1O (stereo not drawn)
(8) COc1ccc(C2C(C#N)=C(N)Oc3c2sc2nc(C)cc(C)c32)cc1 (stereo not drawn)
(9) O=C(O)CCn1c2c(c3ccccc31)CCCC2
(10) CCN1C(=O)C(CC(=O)Nc2ccc(OC)cc2)N(CCc2ccc(F)cc2)C1=S (stereo not drawn)
compound no.	1	2	3	4	5	6	7	8	9	10
A549 tox	-12%	-2%	?	-6%	-7%	-2%	-3%	-14%	-1%	?
IL-2 act	·	·	0	-4	0	-4	·	19	-2	-1
Nrf2 block	15%	-1%	18µM*	12%	3%	11%	2%	-21%	-6%	?
miR-21 reporter	-7%	·	-12%	·	·	·	-10%	-6%	0%	?
Nrf2 ARE act	0%	·	1%	0%	-1%	-1%	3%	14%	0%	6%
ClpP mod	-1%	-11%	1%	2%	13µM*	32µM*	0%	28µM*	25µM*	11µM*

(11) COc1ccc(NC(=O)CC2C(=O)N(C)C(=S)N2CCc2ccc(F)cc2)cc1 (stereo not drawn)
(12) CC(C)Oc1ccc(C(=O)NCC(c2ccc(N(C)C)cc2)N2CCCC2)cc1 (stereo not drawn)
(13) Cc1ccc(-c2csc3ncnc(Sc4nnc(CN5CCCCCC5=O)o4)c23)cc1
(14) COc1ccccc1NC(=O)C(=O)NCC(c1ccc2c(c1)OCO2)N1CCOCC1 (stereo not drawn)
(15) Cc1c(Cl)cccc1NC(=O)CN1C(=O)COc2ccc(S(=O)(=O)Nc3ccccc3)cc21
(16) CCOc1cccc(C(=O)Nc2c(C(=O)c3ccc(OC)cc3)oc3ccccc23)c1
(17) CC(C)c1ccc(C(O)P(=O)(OC2CCCCC2)OC2CCCCC2)cc1 (stereo not drawn)
(18) COc1cc(C(O)P(=O)(OC2CCCCC2)c2ccc(N(C)C)cc2)cc(OC)c1OC (stereo not drawn)
(19) CC(=NNC(=S)Nc1cccc(C)c1)c1ccccn1
(20) C/C(=N\NC(=O)c1cccc(Br)c1)c1ccccn1
compound no.	11	12	13	14	15	16	17	18	19	20
A549 tox	?	-18%	?	4%	0%	0%	?	1%	-25%	?
IL-2 act	-1	·	-3	·	·	·	-1	1	0	-1
Nrf2 block	23µM*	·	15µM*	·	24%	?	16µM*	0%	?	2.3µM*
miR-21 reporter	?	-8%	?	-5%	4%	-10%	20%	-3%	·	-1%
Nrf2 ARE act	9%	0%	?	1%	-1%	-1%	0%	-1%	7%	?
ClpP mod	-2%	1%	-1%	-1%	0%	-14%	1%	-1%	1%	-26%

# Part of the list above in order of heavy-atom count, high to low:
(15) Cc1c(Cl)cccc1NC(=O)CN1C(=O)COc2ccc(S(=O)(=O)Nc3ccccc3)cc21
(16) CCOc1cccc(C(=O)Nc2c(C(=O)c3ccc(OC)cc3)oc3ccccc23)c1
(11) COc1ccc(NC(=O)CC2C(=O)N(C)C(=S)N2CCc2ccc(F)cc2)cc1 (stereo not drawn)
compound no.	15	16	11
A549 tox	0%	0%	?
IL-2 act	·	·	-1
Nrf2 block	24%	?	23µM*
miR-21 reporter	4%	-10%	?
Nrf2 ARE act	-1%	-1%	9%
ClpP mod	0%	-14%	-2%

# Other entries.
(21) C/C(=N\NC(=O)c1cc(Br)ccc1O)c1ccccn1
(22) C/C(=N\NC(=O)C(c1ccccc1)c1ccccc1)c1ccccn1
(23) C/C(=N\NC(=O)C(c1ccccc1)c1ccccc1)c1ccc(O)cc1
(24) C/C(=N\NC(=O)C1CCCN(S(=O)(=O)c2ccccc2)C1)c1ccncc1 (stereo not drawn)
(25) CC(=NNC(=S)Nc1ccc(C)cc1)c1ccccn1
(26) C/C(=N\NC(=O)C1CCCN(S(=O)(=O)c2ccccc2)C1)c1ccccn1 (stereo not drawn)
(27) Cc1cc2oc(C(=O)N(Cc3ccccc3)C3CCS(=O)(=O)C3)cc(=O)c2cc1C (stereo not drawn)
(28) CCOc1ccc(-c2cn3c(n2)sc2cc(C(=O)NC(C)C45CC6CC(CC(C6)C4)C5)ccc23)cc1 (stereo not drawn)
(29) C/C(=N\NC(=O)C1COc2ccccc2O1)c1ccc(C)o1 (stereo not drawn)
(30) C/C(=N\NC(=O)C1COc2ccccc2O1)c1ccccn1 (stereo not drawn)
compound no.	21	22	23	24	25	26	27	28	29	30
A549 tox	-16%	?	10%	2%	12µM*	?	-9%	0%	-9%	?
IL-2 act	-4	0	0	0	-1	-1	·	·	-4	1
Nrf2 block	3%	12µM*	?	5%	?	12µM*	-4%	?	-24%	9.2µM*
miR-21 reporter	-31%	6%	-1%	-16%	·	10%	-13%	-4%	0%	-6%
Nrf2 ARE act	0%	19%	2%	0%	2%	1%	1%	1%	1%	?
ClpP mod	?	1%	-5%	0%	-30%	-1%	0%	-8%	1%	-22%

(31) O=C(c1cccc(Cl)c1)N1CCN(Cc2ccc3c(c2)OCO3)CC1
(32) O=C(c1ccc(COc2ccc(Cl)cc2)o1)N1CCN(Cc2ccc3c(c2)OCO3)CC1
(33) O=C(c1ccc(COc2ccccc2Cl)o1)N1CCN(Cc2ccc3c(c2)OCO3)CC1
(34) O=C(c1cccn2c(=O)c3ccc(Cl)cc3nc12)N1CCN(Cc2ccc3c(c2)OCO3)CC1
(35) O=c1c2ccccc2ncn1CCCSc1ccc(Cl)cc1
(36) O=c1c2ccccc2ncn1CCCSc1ccccc1
(37) CC[C@H](C)Cc1cn([C@@H](CCCCNC(=O)OC(C)(C)C)C(=O)NCCCCCCCCCCC(=O)N2CCN(C(=O)OC(C)(C)C)CC2)nn1
(38) O=C(OCC#CCSc1nnc(-c2cccc3ccccc23)o1)c1ccsc1
(39) C=CCOc1ccc(CN(C)C(=O)CNC(=O)c2ccc(-c3ccccc3)cc2)cc1
(40) COc1cc(N(C)C)c(OC)cc1C=O
compound no.	31	32	33	34	35	36	37	38	39	40
A549 tox	1%	-20%	-10%	2%	11%	?	?	-4%	-21%	·
IL-2 act	0	-1	0	-2	-2	-2	-1	·	-1	·
Nrf2 block	20%	23µM*	-14%	2%	17%	23µM*	10µM*	?	16µM*	·
miR-21 reporter	6%	0%	-4%	-5%	-18%	-29%	·	·	23%	·
Nrf2 ARE act	2%	3%	4%	-1%	0%	4%	4%	·	2%	·
ClpP mod	0%	0%	-3%	22µM*	0%	-3%	1%	·	-4%	-8%

# Arranged by value in ClpP mod (falling): four of the compounds above
no.	SMILES	ClpP mod
37	CC[C@H](C)Cc1cn([C@@H](CCCCNC(=O)OC(C)(C)C)C(=O)NCCCCCCCCCCC(=O)N2CCN(C(=O)OC(C)(C)C)CC2)nn1	1%
31	O=C(c1cccc(Cl)c1)N1CCN(Cc2ccc3c(c2)OCO3)CC1	0%
36	O=c1c2ccccc2ncn1CCCSc1ccccc1	-3%
40	COc1cc(N(C)C)c(OC)cc1C=O	-8%
